From publication PMC3041981 (ACS medicinal chemistry letters, 2010)

Tested on: locomotor activity in mice
Test: Locomotor stimulant activity in mice
Assay type: in vivo

NC(=O)C[S+]([O-])C(c1ccc(Cl)cc1)c1ccc(Cl)cc1 (racemic) [5c]
Locomotor effect in first and second hour after injection (immediately after injection and second hour): no effects
Locomotor effect in third and fourth hours after injection (third and fourth hours, highest dose studied): modest stimulant effect
